Data as given in PMC7181223, “A DyP-Type Peroxidase of Pleurotus sapidus with Alkene Cleaving Activity” (Molecules, 2020).

Substrate: CCn1c(=NN=c2sc3cc(S(=O)(=O)O)ccc3n2CC)sc2cc(S(=O)(=O)O)ccc21
Assay: purified protein
Type: biochemical, Pleurotus sapidus
Details: 100 µM H2O2, 25 mM MnSO4, optimal pH and temperature (pH 3.5, 40 °C)

B1: PsaPOX (DyP-type peroxidase of Pleurotus sapidus) (Pleurotus sapidus) (protein)
chain: MTTPAPPLDLNNIQGDILGGLPKKTETYFFFDVTNVDRFKANMTQFIPHVKTSAGIVKDREAIKEHKRQKRPGLVPMAAVNVSFSHLGLQKLGITDDLSDSSFTTGQRKDAEVLGDPGTKNGDTFTPAWEAPFLKDIHGVIFVAGDCHASVHKKLDEIKHIFGVGTSHASISEVTHVRGDVRPGQVSAHEHFGFLDGISNPAVDQFDQNPFPGQDSIRPGFILAKENGDSRAAARPDWAKDGSFLTFRYLFQMVPEFDDFLESNPIVLPGLSRKEGSELLGARIVGRWKSGAPIEITPLKDDPKLGADAQRNNNFDFGDSLVRGDQTKCPFAAHIRKTYPRNDLEGPPLNADIDNRRIIRRGIQFGPEVTSQEHHDKKTHHGRGLLFVCYSSSIDDGFHFIQQSWANAPNFPVNAVTSAGPIPPLDGVIPGFDAIIGQKVGGGIRQISGTNPNDPTTNITLPDQDFVIPRGGEYFFSPSISALKTKFAAGVASSAPQAQAPIST
notes: full-length ORF (1512 bp, 504 aa), C-terminal 6x His tag kept, S. cerevisiae alpha-factor secretion signal (pPIC9), Komagataella pfaffii GS115, Ni-NTA; monomeric; native peptides EGSELLGAR, DGSFLTFR, SGAPIEITPLKDDPK
kcat: 6.8 ± 0.2 s⁻¹
